The results in this text go back to PMC4933657, “Ultrastructure of the liver microcirculation influences hepatic and systemic insulin activity and provides a mechanism for age‐related insulin resistance” (Aging Cell, 2016).

Data set [1] can be described thus: Multiple indicator dilution (MID) in perfused liver, 14C-insulin and 3H-sucrose.
The conditions of data set [2]: old vs young C57Bl6 mice, i.v. 14C-insulin.

In the case of insulin, the “reduction in the fractional volume of distribution of insulin with age” value in data set [1] (n = 9 young and 10 old F344 rats, P = 0.01) turned out to be 20%. In addition, the “volume of distribution of insulin relative to sucrose, young rats” value in data set [1] (perfused liver, 3-month-old F344 rats) is listed as “the same as”. Also, the “ratio of the volume of distribution of insulin to that of sucrose, middle age” value in data set [1] (perfused liver, 12- to 15-month-old F344 rats, relative to young and old) is recorded as “intermediate”. Also, in data set [1] (perfused liver, 24- to 27-month-old F344 rats), the “ratio of the volume of distribution of insulin to that of sucrose, old rats” value is “about 80%”. The “insulin uptake in the fat and the muscle in old mice” value in data set [2] is recorded as “unchanged”. Also, the “reduction of insulin uptake by the liver in old mice” value in data set [2] (n = 10 and 10, P < 0.05) is “about 30%”.
